# Experimental data taken from patent US8389247B2, “Physiogenomic method for predicting diabetes and metabolic syndromes induced by psychotropic drugs” (priority 2006, dated 2013).
# Experiment: Outcome variables of patients on each psychotropic drug broken down by demographic factors (Covariates tables)
# Settings: human, in vivo
structure (smiles),measurement,value
"OCCOCCN1CCN(C2=Nc3ccccc3Sc3ccccc32)CC1 [Quetiapine, quetiapine]",TC/HDL,4.023
same,Waist,102.05
